Only a part is listed here, and it is no random draw. Inconclusive results are not listed. Active and inactive are the calls of the source. How the source made its calls, unless noted: active means hit-call score of the fitted dose curve at least 0.9, where 1 is the maximum; inconclusive means response in the unintended direction; inactive means score below 0.9.

By UniProt entry, the sequences of proteins in these tests, tags left out.
UniProt P19793, whole entry: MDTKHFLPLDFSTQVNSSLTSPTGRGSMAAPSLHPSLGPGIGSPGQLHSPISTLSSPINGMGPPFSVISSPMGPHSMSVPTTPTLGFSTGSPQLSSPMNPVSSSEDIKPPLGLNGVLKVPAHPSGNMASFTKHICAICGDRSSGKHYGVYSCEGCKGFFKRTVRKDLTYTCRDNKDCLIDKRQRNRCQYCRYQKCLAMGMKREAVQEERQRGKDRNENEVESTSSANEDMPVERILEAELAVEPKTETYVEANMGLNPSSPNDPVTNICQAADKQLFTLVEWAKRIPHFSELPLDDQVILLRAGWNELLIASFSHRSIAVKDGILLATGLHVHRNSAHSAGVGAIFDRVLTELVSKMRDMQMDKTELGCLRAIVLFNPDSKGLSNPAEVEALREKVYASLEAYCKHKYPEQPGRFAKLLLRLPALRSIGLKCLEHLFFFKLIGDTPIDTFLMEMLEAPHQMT
UniProt P37231, whole entry: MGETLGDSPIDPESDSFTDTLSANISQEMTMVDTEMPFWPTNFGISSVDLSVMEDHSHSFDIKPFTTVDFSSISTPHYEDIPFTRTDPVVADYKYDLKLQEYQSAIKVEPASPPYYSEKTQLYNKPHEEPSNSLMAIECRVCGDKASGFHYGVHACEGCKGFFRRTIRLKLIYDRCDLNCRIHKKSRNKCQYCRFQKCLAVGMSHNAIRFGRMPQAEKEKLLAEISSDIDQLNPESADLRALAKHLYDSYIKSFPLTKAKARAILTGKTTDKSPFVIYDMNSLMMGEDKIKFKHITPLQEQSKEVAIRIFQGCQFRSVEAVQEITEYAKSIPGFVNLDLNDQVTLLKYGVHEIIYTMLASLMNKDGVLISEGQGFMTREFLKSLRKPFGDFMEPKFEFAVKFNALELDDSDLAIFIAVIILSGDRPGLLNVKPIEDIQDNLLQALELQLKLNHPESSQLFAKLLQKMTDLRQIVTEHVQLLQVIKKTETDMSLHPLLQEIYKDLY

The first test has as its target Retinoic acid receptor RXR-alpha (Homo sapiens) (UniProt P19793). Briefly: OT_NURR1_NURR1RXRa_1440: Odyssey Thera (OT) 24-hour HEK293T Protein Complementation Assay for Nurr1/retinoid X receptor (RXR) (AID 2283386).
Settings: not given
The method, boiled down:
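Interaction of Nurr1 with RXRα brings fused reporter fragments together in human HEK293T cells, restoring a functional reporter. Fluorescence intensity is measured 24 h after chemical treatment, and values are analysed in the positive direction against DMSO.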
For `CC(C)OP(C)(=O)OC(C)C`, the call was inactive.
On the same count and under the same terms, with `Cc1c([N+](=O)[O-])cccc1[N+](=O)[O-]` the entry was “inactive”; with `COP(C)(=O)OC`, “inactive”; with `Cc1ccc([N+](=O)[O-])cc1[N+](=O)[O-]`, “inactive”.
The same measure, in the same setting: with `Cc1cccc([N+](=O)[O-])c1[N+](=O)[O-]` the entry was “inactive”; with `O=[N+]([O-])OCC(CO[N+](=O)[O-])(CO[N+](=O)[O-])CO[N+](=O)[O-]`, “inactive”.
Take `O=[N+]([O-])c1cccc([N+](=O)[O-])c1`: the molecule was called inactive.

The next test has as its target Peroxisome proliferator-activated receptor gamma (Homo sapiens) (UniProt P37231). Briefly: OT_PPARg_PPARgSRC1_0480: Odyssey Thera (OT) 8-hour Protein-Complementation Assay for Peroxisome Proliferator-activated Receptor Gamma / SRC-1 Co-activator (AID 2283387).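 Further: nuclear to cytoplasmic split Venus YFP fluorescence ratio reporting PPARg SRC-1 interaction.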
Settings: not given
The method, boiled down:
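Protein-fragment complementation of split Venus YFP reports PPARg/SRC-1 interaction in HEK293T (transfected 48 h before treatment), exposed 8 h. Readout: N/C fluorescence ratio at 488 nm from imaging, Draq5 for segmentation, positive fit relative to DMSO.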
For `CC(C)OP(C)(=O)OC(C)C`, the result was inactive.
As for `Cc1c([N+](=O)[O-])cccc1[N+](=O)[O-]`, the result was inactive.
With `COP(C)(=O)OC`, the molecule was classed as inactive.
On the same count and under the same terms, then `Cc1ccc([N+](=O)[O-])cc1[N+](=O)[O-]`, with “inactive”; and `Cc1cccc([N+](=O)[O-])c1[N+](=O)[O-]`, with “inactive”; and `O=[N+]([O-])OCC(CO[N+](=O)[O-])(CO[N+](=O)[O-])CO[N+](=O)[O-]`, with “inactive”.
With `O=[N+]([O-])c1cccc([N+](=O)[O-])c1`, the molecule was called inactive.

For another test the target is unchanged. Briefly: OT_PPARg_PPARgSRC1_1440: Odyssey Thera (OT) 24-hour Protein-Complementation Assay for Peroxisome Proliferator-activated Receptor Gamma/ SRC-1 Co-activator (AID 2283388).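 Further: nuclear to cytoplasmic ratio of reconstituted Venus YFP fluorescence in fixed imaged cells.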
Settings: not given
How it is done: OT_PPARg_PPARgSRC1_1440 is a cell-based assay that uses HEK293T, a human kidney cell line, with measurements taken at 24 hours after chemical dosing in a 384-well plate.OT_PPARg_PPARgSRC1_1440 is one of one assay component(s) measured or calculated from the OT_PPARg_PPARgSRC1_1440 assay. It is designed to make measurements of protein fragment complementation, a form of binding reporter, as detected with fluorescence intensity signals by Protein-fragment Complementation technology.Data from the assay component OT_PPARg_PPARgSRC1_1440 was analyzed into 1 assay endpoint. This assay endpoint, OT_PPARg_PPARgSRC1_1440, was analyzed in the positive analysis fitting direction relative to DMSO as the negative control and baseline of activity. Using a type of binding reporter, measures of receptor for gain-of-signal activity can be used to understand the binding at the pathway-level as they relate to the gene PPARG. Furthermore, this assay endpoint can be referred to as a primary readout, because the performed assay has only produced 1 assay endpoint. To generalize the intended target to other relatable targets, this assay endpoint is annotated to the nuclear receptor intended target family, where the subfamily is non-steroidal.
The OT PPARg/SRC-1 assay assessed receptor-chemical interactions using a rapidly maturing, intensely fluorescent mutant of YFP known as Venus, rationally dissected into two separate fragments. The fragments were obtained as follows: first, fragments coding for YFP1 and YFP2 (corresponding to amino acid residues 1-158 and 159-239 of the full length YFP, respectively) were generated by oligonucleotide synthesis (Blue Heron Biotechnology), and then PCR mutagenesis was used to generate the mutant fragments IFP1 and IFP2. Fusion constructs were transfected into HEK293T cells with a (Gly4Ser)2 linker between the PPARg/SRC-1 and YFP fragment genes to facilitate complementation when interacting proteins bring fragments into close proximity. The construct is transiently transfected in HEK293T cells 48 hours prior to treatment with test compounds. Cells are seeded into optical quality 384-well poly-D-lysine coated plates in MEM alpha medium (Invitrogen) supplemented with 10 percent FBS (Gemini Bio-Products) 1 percent penicillin and 1 percent streptomycin, and grown in 37C incubator equilibrated to 5 percent CO2. Cells are allowed to adhere for 24 hours prior to treatment with compounds of interest or controls for 24 hours. Cells are fixed in 4 percent formaldehyde and stained with Draq5 (BioStatus) to identify cells and subcellular compartment boundaries prior to signal detection. 8 Images per well were acquired on an Evotec Opera at 2 wavelengths (488 and 635nm), and the ratio of fluorescence in the nucleus relative to fluorescence in the cytoplasm (N/C Ratio) in the 488nm channel was calculated for a minimum of 350 cells per image.
As to `CC(C)OP(C)(=O)OC(C)C`, the molecule was classed as inactive.
On the same count and under the same terms, then `Cc1c([N+](=O)[O-])cccc1[N+](=O)[O-]`, with “inactive”; and `COP(C)(=O)OC`, with “inactive”; and `Cc1ccc([N+](=O)[O-])cc1[N+](=O)[O-]`, with “inactive”.
On to `Cc1cccc([N+](=O)[O-])c1[N+](=O)[O-]`, for which the call was inactive.
Still for that read-out and setting: then `O=[N+]([O-])OCC(CO[N+](=O)[O-])(CO[N+](=O)[O-])CO[N+](=O)[O-]`, with “inactive”.
On to `O=[N+]([O-])c1cccc([N+](=O)[O-])c1`, for which the result was inactive.

Read-out in another test: not listed separately
The test can be described thus: CEETOX_H295R_11DCORT: CeeTox H295R High-throughput Steroidogenesis Assay for 11-Deoxycortisol (11DCORT) (AID 2283432; active means hit-call score of the fitted dose curve at least 0.9, where 1 is the maximum; inactive means score below 0.9). The note with it: actives raise or lower the signal. The method in brief:
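Human adrenal H295R cells were prestimulated with 10 uM forskolin for 48 h, then exposed to test chemical (0.1% DMSO final) for 48 h. Medium 11-deoxycortisol was quantified by MTBE extraction and HPLC-MS/MS; bidirectional fitting relative to DMSO.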
For the molecule `Cc1c([N+](=O)[O-])cccc1[N+](=O)[O-]`, the result was inactive.
On the same count and under the same terms, then `Cc1ccc([N+](=O)[O-])c([N+](=O)[O-])c1`, with “inactive”; and `Cc1cccc([N+](=O)[O-])c1[N+](=O)[O-]`, with “inactive”.

Read-out in the next test: not listed separately
Briefly: CEETOX_H295R_OHPREG: CeeTox H295R High-throughput Steroidogenesis Assay for OH-Pregnenolone (OHPREG) (AID 2283434; active means hit-call score of the fitted dose curve at least 0.9, where 1 is the maximum; inactive means score below 0.9). Conditions: actives raise or lower the signal. The method, boiled down: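 Hormone levels in spent medium were measured by tandem mass spectrometry following liquid-liquid extraction. Cells (H295R) had been forskolin-stimulated (10 uM, 48 h) before a 48 h chemical exposure at 0.1% DMSO, with activity fitted in both directions against DMSO.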
For the molecule `Cc1c([N+](=O)[O-])cccc1[N+](=O)[O-]`, the call was inactive.
Consider `Cc1ccc([N+](=O)[O-])c([N+](=O)[O-])c1`, for which the call was inactive.
Regarding `Cc1cccc([N+](=O)[O-])c1[N+](=O)[O-]`, the result was inactive.

Read-out in another test: not listed separately
Briefly: CEETOX_H295R_OHPROG: CeeTox H295R High-throughput Steroidogenesis Assay for OH-Progesterone (OHPROG) (AID 2283435; active means hit-call score of the fitted dose curve at least 0.9, where 1 is the maximum; inactive means score below 0.9). The note with it: actives raise or lower the signal. The method in brief:
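H295R, 10 uM forskolin prestim 48 h; cmpd in 0.1% DMSO 48 h; medium MTBE-extracted, HPLC-MS/MS for OH-progesterone; 7-pt std curve; bidirectional fit vs DMSO; MTT viability, chemicals diluted until viability >/=70%.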
Consider `Cc1c([N+](=O)[O-])cccc1[N+](=O)[O-]`, for which the call was inactive.
For `Cc1ccc([N+](=O)[O-])c([N+](=O)[O-])c1`, the molecule was classed as inactive.
`Cc1cccc([N+](=O)[O-])c1[N+](=O)[O-]`: the molecule was called inactive.

Read-out in a further test: not listed separately
Briefly: CEETOX_H295R_ANDR: CeeTox H295R High-throughput Steroidogenesis Assay for Androstenedione (ANDR) (AID 2283436; active means hit-call score of the fitted dose curve at least 0.9, where 1 is the maximum; inactive means score below 0.9). Conditions: actives raise or lower the signal. The method in brief:
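Read-out is androstenedione secreted into medium, measured by tandem mass spectrometry after liquid-liquid extraction. Cells were H295R, dosed for 48 h per modified OECD 456; activity fitted in both directions relative to DMSO.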
As to `Cc1c([N+](=O)[O-])cccc1[N+](=O)[O-]`, the molecule was classed as inactive.
Same read-out and setting: with `Cc1ccc([N+](=O)[O-])c([N+](=O)[O-])c1` the entry was “inactive”.
On the same count and under the same terms, then `Cc1cccc([N+](=O)[O-])c1[N+](=O)[O-]`, with “inactive”.

Read-out in the next test: not listed separately
Briefly: CEETOX_H295R_CORTIC: CeeTox H295R High-throughput Steroidogenesis Assay for Corticosterone (CORTIC) (AID 2283437; active means hit-call score of the fitted dose curve at least 0.9, where 1 is the maximum; inactive means score below 0.9;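 further: corticosterone secreted into medium quantified by mass spectrometry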). Conditions: actives raise or lower the signal. As to the method: (§1) CEETOX_H295R is a cell-based, multiplexed-readout assay that uses H295R, a human adrenal gland cell line, with measurements taken at 48 hours after chemical dosing in a 96-well plate.CEETOX_H295R_CORTIC is one of 23 assay component(s) measured or calculated from the CEETOX_H295R assay. It is designed to make measurements of hormone induction, a form of inducible reporter, as detected with absorbance signals by HPLC-MS-MS technology.Data from the assay component CEETOX_H295R_CORTIC was analyzed into 1 assay endpoint. This assay endpoint, CEETOX_H295R_CORTIC, was analyzed with bidirectional fitting relative to DMSO as the negative control and baseline of activity. Using a type of inducible reporter, gain or loss-of-signal activity using HPLC-MS-MS was used to understand synthesis of Corticosterone in H295R cell line at 48hr of chemical exposure. To generalize the intended target to other relatable targets, this assay endpoint is annotated to the steroid hormone intended target family, where the subfamily is glucocorticoids.
(§2) Cell culture and media preparation procedures were conducted in accordance with OECD Test No. 456 guidelines, with minor modifications. […] For steroid quantification, media samples were shipped to OpAns, LLC (Durham, NC) on dry ice, and samples were thawed to room temperature prior to liquid-liquid extraction. […] Steroid hormones were separated by HPLC, eluted using a reverse phase C18 gradient with electrospray positive ionization, followed by quantification by tandem mass spectrometry (MS/MS). Data were acquired on a MassHunter Workstation Acquisition version B03.01 (Agilent Technologies, Inc.) and processed using MassHunter Quantitative Analysis for QQQ. Accuracy was determined for each hormone analyte from 3 standards to determine upper and lower limits of quantification (ULOQ and LLOQ, respectively) using a 7-point standard curve. Precision and accuracy of the extraction and quantification methods were calculated as the percent relative standard deviation (%RSD) of the spiked standards and percent spiked standard recovered, respectively. […]
Consider `Cc1c([N+](=O)[O-])cccc1[N+](=O)[O-]`, for which the result was inactive.
The same measure, in the same setting: with `Cc1ccc([N+](=O)[O-])c([N+](=O)[O-])c1` the entry was “inactive”.
On the same count and under the same terms, then `Cc1cccc([N+](=O)[O-])c1[N+](=O)[O-]`, with “inactive”.

Read-out in another test: not listed separately
Briefly: CEETOX_H295R_CORTISOL: CeeTox H295R High-throughput Steroidogenesis Assay for Cortisol (AID 2283438; active means hit-call score of the fitted dose curve at least 0.9, where 1 is the maximum; inactive means score below 0.9;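 further: cortisol secreted into medium quantified by LC-MS/MS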). The note with it: actives raise or lower the signal. The method, boiled down:
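Forskolin 10 uM 48 h prestim → test cmpd in DMSO (0.1% final) 48 h → medium MTBE-extracted → LC-MS/MS cortisol vs 7-pt std curve. Gain/loss of signal fitted vs DMSO. MTT viability in same wells.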
For `Cc1c([N+](=O)[O-])cccc1[N+](=O)[O-]`, the call was inactive.
The same measure, in the same setting: then `Cc1ccc([N+](=O)[O-])c([N+](=O)[O-])c1`, with “inactive”.
Take `Cc1cccc([N+](=O)[O-])c1[N+](=O)[O-]`: the call was inactive.

Read-out in another test: not listed separately
The test can be described thus: CEETOX_H295R_DOC: CeeTox H295R High-throughput Steroidogenesis Assay for DOC (AID 2283439; active means hit-call score of the fitted dose curve at least 0.9, where 1 is the maximum; inactive means score below 0.9). The note with it: actives raise or lower the signal. How it is done:
as §1, with “plate.CEETOX_H295R_DOC” for “plate.CEETOX_H295R_CORTIC”, “CEETOX_H295R_DOC” for “CEETOX_H295R_CORTIC”, “CEETOX_H295R_DOC,” for “CEETOX_H295R_CORTIC,”, “11-Deoxycorticosterone” for “Corticosterone”
as §2
Regarding `Cc1c([N+](=O)[O-])cccc1[N+](=O)[O-]`, the outcome was inactive.
Same read-out and setting: with `Cc1ccc([N+](=O)[O-])c([N+](=O)[O-])c1` the entry was “inactive”.
As usually defined, the AC50 is the concentration giving half of the maximal activity seen. In the case of `Cc1cccc([N+](=O)[O-])c1[N+](=O)[O-]`, the concentration at half-maximal activity (AC50) was active: 3.29 µM.

The values above are taken from PubChem BioAssay (EPA / NIEHS).
